In the test the target is NE uptake (Rattus norvegicus, UniProt Q63380). As to the kind of experiment: Neurotransmitter uptake inhibition: NE uptake, crude synaptosomal preparation. The test is classed as biochemical. The procedure:
Male Sprague-Dawley rats (180-260 g, Charles River) were used in all neurochemical assays. Rats were housed in temperature-controlled quarters on a 12 hr light/12 hr dark cycle with free access to food and water.
Neurotransmitter Uptake Inhibition
Uptake experiments were performed using a crude synaptosomal preparation made from the brain tissue of adult male Sprague-Dawley rats. The cortex of 1 rat for NE and 5-HT uptake was removed on ice and homogenized in 20 volumes of 0.32 M sucrose/g tissue weight using a Potter-Elvehjem teflon homogenizer (3 strokes at 840 rpm). The homogenate was then centrifuged for 12 minutes at 1,000×g at 0-4° C. The resulting supernatant was decanted into a chilled glass beaker and kept on ice until assayed. Protein concentration was determined by the method of Lowry et al. (1).
For these experiments, all compounds were run in duplicate in concentrations of 0.003-30.0 μM. Each tube received buffer (790 μl in drug tubes, 800 μl in control tubes), 10 μl of drug or standard. (0.1 μM DMI for NE uptake and 3.0 μM zimelidine HCl for 5-HT uptake), 100 μl isotope (0.1 μM ^3H—NE and 0.05 μM ^14C-5-HT), and 100 μl tissue. […] Filters were added to 10 ml Hydrofluor, shaken for 15 minutes and counted in a Packard 460CD scintillation counter equipped with dual-label dpm data reduction. Results were expressed as pmol uptake/mg protein/min.

By UniProt entry, the sequences of proteins in these tests, tags left out. Residues count along the entry.
UniProt Q63380, 1-617: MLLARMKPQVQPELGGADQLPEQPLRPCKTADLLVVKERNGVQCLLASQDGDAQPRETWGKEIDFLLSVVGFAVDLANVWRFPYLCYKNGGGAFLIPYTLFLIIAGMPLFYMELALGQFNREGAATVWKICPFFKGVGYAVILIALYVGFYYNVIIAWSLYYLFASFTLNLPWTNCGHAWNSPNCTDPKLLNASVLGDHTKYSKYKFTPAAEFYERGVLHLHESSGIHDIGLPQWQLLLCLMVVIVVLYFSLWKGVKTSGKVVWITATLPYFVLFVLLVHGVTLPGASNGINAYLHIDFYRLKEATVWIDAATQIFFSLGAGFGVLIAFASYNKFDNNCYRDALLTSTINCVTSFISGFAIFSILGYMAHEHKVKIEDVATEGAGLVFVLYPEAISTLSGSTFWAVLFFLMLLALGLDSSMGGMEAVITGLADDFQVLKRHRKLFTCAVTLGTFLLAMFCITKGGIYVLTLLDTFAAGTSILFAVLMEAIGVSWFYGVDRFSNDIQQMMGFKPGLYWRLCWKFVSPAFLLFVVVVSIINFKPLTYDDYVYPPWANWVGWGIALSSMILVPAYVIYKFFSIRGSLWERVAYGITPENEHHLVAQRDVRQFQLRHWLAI

With `COc1ccc(C(CN(C)C)C2(O)CCCCC2)cc1` (racemic) [Venlafaxine, (R/S)-1-[2-(dimethylarino)-1-(4-methoxyphenyl)ethyl]cyclohexanol, reference compound], it took 720 nM to reach half-maximal inhibition (IC50).

The IC50 is the midpoint of a concentration-inhibition curve.

Source of the values: patent US20040176468A1 (Wyeth, priority 1999, published 2004).
